Key:
Assay type in all cases: cell-based, human
EGFR = experiment: Western blot of pEGFR and EGFR
Description: Mayo PDX cells were serum starved overnight. Following treatment for specific time, cells were harvested and lysed. The human glioblastoma tissues were ground in liquid nitrogen and then were lysed. […] TGFα antibody was from R&D system.

Mayo PDX cells = experiment: Matrigel invasion assay
Experimental: Invasion status of cells was tested with Matrigel Boyden chamber assays (Fisher). 1×10^5 cells were plated on BD BioCoat Matrigel invasion chambers. 24 hours after treatment with drugs, invaded cells were stained with the HEMA-3 kit (Fisher). Invaded cells were counted in 4-5 random fields.
An equal number of cells (5×10^4) were seeded on Matrigel coated inserts, and were untreated (control vehicle) or stimulated with 50 ng/ml EGF for 24 hours, cells invading to the other side of the membrane were counted and presented as percentage cell invasion. […] A similar invasion assay was conducted on GBM26 cells (FIG. 2D). […] Cells were transfected with EGFR or scrambled siRNA for 48 hours before the invasion assay. A similar invasion assay was performed on GBM6 (FIG. 2G). […] Cells were transiently transfected with empty or EGFR wildtype (EGFRwt) overexpressing vector, and invasion assay was performed after 48 hours after transfection. Overexpression of EGFR in GBM12 and GBM14 was confirmed by Western blotting (FIG. 2J). […] Cells were treated with or without 50 ng/ml EGF for 48 hours before the assay. The Western blot images are representative of three independent biological replicates. Actin served as loading control. Data are represented as mean±SEM from three independent experiments. *P<0.05, **P<0.01, n.s. not significant, unpaired two-tailed Student's t-test. […]

BIN3 = BIN3 expression by Western blot / real-time PCR; conditions: cetuximab with tofacitinib, 24 hours; GBM12, GBM6
Experimental: Whole protein extracts from cells or tumor tissues were analyzed by western blot as previously described (Altieri et al. (2015) Surg. Technol. Int 27: 297-302). Mayo PDX cells were serum starved overnight. Following treatment for specific time, cells were harvested and lysed. The human glioblastoma tissues were ground in liquid nitrogen and then were lysed. EGFR (06-847) antibody was from Millipore. DOCK7 was from Proteintech (Rosemont, Ill.). pEGFR (2236), STAT3 (12640), pSTAT3 (9145), cdc42(4376), and RhoA (4695) antibodies were from Cell Signaling Technology (Danvers, Mass.). TGFα antibody was from R&D system. BIN3 (sc-514396) and (3-Actin (sc-47778) were from Santa Cruz Biotechnology (Dallas, Tex.).
Total RNA from cells was extracted by TRIzol Reagent (Ambion). First-strand cDNA and PCR was performed as described previously (Altieri et al. (2015) Surg. Technol. Int. 27: 297-302). The expression of each gene was normalized to GAPDH as a reference. […]
Referring to FIG. 7A-0, EGF-mediated BIN3 upregulation inhibits invasiveness. […] BIN3 mRNA levels in EGF-treated PDXs were determined by real-time PCR (FIG. 7B). […] Referring to FIG. 7F, knockdown efficiency of BIN3 siRNA was analyzed by Western blotting. […] EGR1 mRNA levels in GBM12 and GBM6 after EGF treatment were determined by real-time PCR (RT-PCR) (FIG. 7I). […] Knockdown efficiency of EGR-1 siRNA was analyzed by Western blotting (FIG. 7O). […]

cetuximab: blocks EGFR ligand binding
EGF-induced tyrosine phosphorylation of the EGFR (EGFR; GBM12, EGF 50 ng/ml): completely blocks
tofacitinib-induced EGFR activation (EGFR; cetuximab with tofacitinib, 24 hours, GBM12, GBM6): completely inhibits
cell invasion (Mayo PDX cells; Cetuximab 100 μg/ml, 24 hours, GBM12): unaffected
tofacitinib-induced suppression of invasion (Mayo PDX cells; cetuximab with tofacitinib, GBM6 and GBM12): completely inhibits
tofacitinib-induced BIN3 upregulation (BIN3): completely inhibits

— patent publication US20230075368A1, “IDENTIFICATION OF AN EGFR-BIN3 PATHWAY THAT ACTIVELY SUPPRESSES INVASION AND REDUCES TUMOR SIZE IN GLIOBLASTOMA” (The United States Govemment as represented by the …, priority 2020, published 2023)
